Results as given in patent US9029386B2, “Pyridine derivatives useful as kinase inhibitors” (YM Biosciences Australia Pty Ltd, priority 2006, dated 2015).
pIC50: −log10 of the molar value.

By UniProt entry, the sequences of proteins in these tests, tags left out. Residues count along the entry.
UniProt P10721, 552-976 limits assumed: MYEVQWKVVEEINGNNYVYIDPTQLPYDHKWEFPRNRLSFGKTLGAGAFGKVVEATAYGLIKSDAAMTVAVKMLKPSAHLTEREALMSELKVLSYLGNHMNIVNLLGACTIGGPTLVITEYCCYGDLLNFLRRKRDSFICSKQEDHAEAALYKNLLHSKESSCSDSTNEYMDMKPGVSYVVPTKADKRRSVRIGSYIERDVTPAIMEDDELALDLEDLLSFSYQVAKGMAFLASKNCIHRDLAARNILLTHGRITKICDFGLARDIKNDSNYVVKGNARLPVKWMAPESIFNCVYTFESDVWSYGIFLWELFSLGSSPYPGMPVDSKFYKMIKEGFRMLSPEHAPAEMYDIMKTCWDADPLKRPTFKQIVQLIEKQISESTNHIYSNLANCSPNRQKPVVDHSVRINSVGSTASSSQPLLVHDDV
UniProt P09619, 33-1106 limits assumed: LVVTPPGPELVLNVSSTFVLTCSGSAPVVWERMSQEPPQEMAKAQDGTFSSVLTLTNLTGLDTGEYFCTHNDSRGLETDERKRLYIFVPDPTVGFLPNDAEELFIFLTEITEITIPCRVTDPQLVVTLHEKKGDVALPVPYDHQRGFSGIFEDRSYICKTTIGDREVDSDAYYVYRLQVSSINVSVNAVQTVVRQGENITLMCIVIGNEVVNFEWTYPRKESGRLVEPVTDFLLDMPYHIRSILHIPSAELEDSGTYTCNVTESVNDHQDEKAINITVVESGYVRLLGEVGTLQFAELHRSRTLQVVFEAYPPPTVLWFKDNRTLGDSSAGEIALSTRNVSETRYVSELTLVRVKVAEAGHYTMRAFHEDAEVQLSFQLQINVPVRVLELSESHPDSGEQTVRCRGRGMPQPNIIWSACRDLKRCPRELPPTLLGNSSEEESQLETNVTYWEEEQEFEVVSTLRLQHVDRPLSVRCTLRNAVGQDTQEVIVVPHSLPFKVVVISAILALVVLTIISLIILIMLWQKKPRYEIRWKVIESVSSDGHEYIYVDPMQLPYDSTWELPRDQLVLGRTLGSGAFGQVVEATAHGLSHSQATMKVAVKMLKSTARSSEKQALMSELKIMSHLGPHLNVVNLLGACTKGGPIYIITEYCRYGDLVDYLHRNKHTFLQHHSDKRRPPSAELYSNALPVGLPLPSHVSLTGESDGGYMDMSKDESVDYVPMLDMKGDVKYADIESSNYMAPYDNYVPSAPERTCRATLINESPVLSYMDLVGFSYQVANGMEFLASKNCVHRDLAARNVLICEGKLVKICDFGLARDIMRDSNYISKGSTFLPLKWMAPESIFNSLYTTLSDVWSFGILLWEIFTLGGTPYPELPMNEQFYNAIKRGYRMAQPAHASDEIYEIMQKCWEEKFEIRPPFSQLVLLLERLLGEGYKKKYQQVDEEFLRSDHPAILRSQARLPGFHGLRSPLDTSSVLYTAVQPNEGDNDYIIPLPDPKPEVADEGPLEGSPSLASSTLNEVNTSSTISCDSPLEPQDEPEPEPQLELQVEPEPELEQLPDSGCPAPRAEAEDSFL
UniProt P07333, 553-961 limits assumed: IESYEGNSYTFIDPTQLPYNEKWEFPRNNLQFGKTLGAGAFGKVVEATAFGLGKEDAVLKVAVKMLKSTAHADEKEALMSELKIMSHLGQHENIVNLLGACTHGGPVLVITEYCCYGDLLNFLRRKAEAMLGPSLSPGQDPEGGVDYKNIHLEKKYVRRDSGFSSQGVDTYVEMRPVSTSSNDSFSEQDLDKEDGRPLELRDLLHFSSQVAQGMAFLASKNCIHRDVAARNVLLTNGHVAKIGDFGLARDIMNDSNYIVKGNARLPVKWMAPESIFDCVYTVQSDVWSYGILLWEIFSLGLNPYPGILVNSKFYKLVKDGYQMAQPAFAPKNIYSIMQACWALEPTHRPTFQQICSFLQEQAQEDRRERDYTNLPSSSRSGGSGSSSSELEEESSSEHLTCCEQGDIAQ
UniProt P36888, 27-993 limits assumed: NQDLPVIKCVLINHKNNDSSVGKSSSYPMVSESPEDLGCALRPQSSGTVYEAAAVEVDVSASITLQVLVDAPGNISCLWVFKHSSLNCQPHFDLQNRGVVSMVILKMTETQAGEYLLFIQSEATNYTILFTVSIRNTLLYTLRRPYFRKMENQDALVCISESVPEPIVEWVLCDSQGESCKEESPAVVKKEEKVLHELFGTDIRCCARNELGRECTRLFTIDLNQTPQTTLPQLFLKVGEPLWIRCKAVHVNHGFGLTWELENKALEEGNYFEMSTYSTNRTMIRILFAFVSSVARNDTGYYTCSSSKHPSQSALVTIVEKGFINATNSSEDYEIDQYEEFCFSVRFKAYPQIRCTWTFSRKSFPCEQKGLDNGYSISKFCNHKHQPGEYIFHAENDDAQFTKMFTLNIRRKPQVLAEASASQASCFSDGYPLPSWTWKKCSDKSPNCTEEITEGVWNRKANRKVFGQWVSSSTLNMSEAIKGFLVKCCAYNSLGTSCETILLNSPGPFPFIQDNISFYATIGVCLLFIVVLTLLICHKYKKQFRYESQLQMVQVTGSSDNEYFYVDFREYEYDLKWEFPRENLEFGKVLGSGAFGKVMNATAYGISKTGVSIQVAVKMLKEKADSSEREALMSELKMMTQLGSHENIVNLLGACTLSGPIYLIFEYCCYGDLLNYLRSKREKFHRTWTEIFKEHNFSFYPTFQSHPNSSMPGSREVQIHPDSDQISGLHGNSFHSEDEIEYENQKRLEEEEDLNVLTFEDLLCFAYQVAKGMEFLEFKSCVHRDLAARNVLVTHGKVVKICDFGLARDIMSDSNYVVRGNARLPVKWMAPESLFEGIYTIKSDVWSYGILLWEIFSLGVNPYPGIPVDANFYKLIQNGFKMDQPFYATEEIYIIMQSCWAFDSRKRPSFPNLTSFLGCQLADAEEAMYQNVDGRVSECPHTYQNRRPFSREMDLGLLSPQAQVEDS

What was measured:
mNFS-60 = test: Cellular assay (Alamar Blue), mNFS-60 with human M-CSF; conditions: read-out: mNFS-60; human M-CSF at 20 ng/ml, 72 hr
Baf3-WT = test: Cellular assay (Alamar Blue), Baf3-WT with mouse IL-3; conditions: read-out: Baf3-WT; mouse IL-3 at 5 ng/ml, 72 hr
[1] = target: kinase domain of human c-kit (Homo sapiens, UniProt P10721); test: Alphascreen protein tyrosine kinase assay, c-KIT; type: biochemical; conditions: read-out: c-KIT
PDGFR β tyrosine kinase = PDGFR β tyrosine kinase (Homo sapiens, UniProt P09619); test: Alphascreen protein tyrosine kinase assay, PDGFRβ; type: biochemical; conditions: read-out: PDGFRβ
[2] = target: kinase domain of human CSF1-R (Homo sapiens, UniProt P07333); test: Alphascreen protein tyrosine kinase assay, CSF-1R; type: biochemical; conditions: read-out: CSF-1R
FLT-3 tyrosine kinase = FLT-3 tyrosine kinase (Homo sapiens, UniProt P36888); test: Alphascreen protein tyrosine kinase assay, FLT-3; type: biochemical; conditions: read-out: Flt3

pIC50 (Baf3-WT) | pIC50 [1] | pIC50 (PDGFR β tyrosine kinase) | pIC50 [2] | pIC50 (FLT-3 tyrosine kinase) | Compound | pIC50 (mNFS-60)
< 5.00 |  |  |  |  | C[C@H](Nc1cncc(Cl)n1)c1cccc(NC(=O)c2cccc(C(F)(F)F)c2)c1 [Compound 114, (S)—N-(3-(1-(6-chloropyrazin-2-ylamino)ethyl)phenyl)-3-(trifluoromethyl)benzamide] | > 5.00
 | > 7.00 | > 6.00 | > 7.00 | < 5.00 | Cc1cccc(C(=O)Nc2cccc([C@H](C)Nc3cncc(-c4ccc(N5CCN(C)CC5)nc4)n3)c2)c1 | 
